What all share (format): cell-based
Substrate in data set [1]: CSCC[C@H](NC(=O)[C@H](CC(=O)O)NC(C)=O)C(=O)O
Nature of the data set: (§1) Ratio of Kcat to Km recombinant human glutamate carboxypeptidase 2 K699S mutant expressed in Drosophila Schneider's S2 cells using [3H]NAAG as substrate after 30 mins.

Substrate in data set [2]: CCCCCCCC(NC(=O)[C@H](CC(=O)O)NC(C)=O)C(=O)O
Described as §1.

Substrate in data set [3]: CSCC[C@H](NC(=O)[C@H](CC(=O)O)NC(C)=O)C(=O)O
Nature of the data set: (§2) Activity of recombinant human glutamate carboxypeptidase 2 K699S mutant expressed in Drosophila Schneider's S2 cells using [3H]NAAG as substrate after 30 mins.

Substrate in data set [4]: CCCCCCCC(NC(=O)[C@H](CC(=O)O)NC(C)=O)C(=O)O
Described as §2.

B1: Glutamate carboxypeptidase 2 (Homo sapiens), Q04609 K699S (protein)
chain: MWNLLHETDSAVATARRPRWLCAGALVLAGGFFLLGFLFGWFIKSSNEATNITPKHNMKAFLDELKAENIKKFLYNFTQIPHLAGTEQNFQLAKQIQSQWKEFGLDSVELAHYDVLLSYPNKTHPNYISIINEDGNEIFNTSLFEPPPPGYENVSDIVPPFSAFSPQGMPEGDLVYVNYARTEDFFKLERDMKINCSGKIVIARYGKVFRGNKVKNAQLAGAKGVILYSDPADYFAPGVKSYPDGWNLPGGGVQRGNILNLNGAGDPLTPGYPANEYAYRRGIAEAVGLPSIPVHPIGYYDAQKLLEKMGGSAPPDSSWRGSLKVPYNVGPGFTGNFSTQKVKMHIHSTNEVTRIYNVIGTLRGAVEPDRYVILGGHRDSWVFGGIDPQSGAAVVHEIVRSFGTLKKEGWRPRRTILFASWDAEEFGLLGSTEWAEENSRLLQERGVAYINADSSIEGNYTLRVDCTPLMYSLVHNLTKELKSPDEGFEGKSLYESWTKKSPSPEFSGMPRISKLGSGNDFEVFFQRLGIASGRARYTKNWETNKFSGYPLYHSVYETYELVEKFYDPMFKYHLTVAQVRGGMVFELANSIVLPFDCRDYAVVLRKYADKIYSISMKHPQEMKTYSVSFDSLFSAVKNFTEIASKFSERLQDFDKSNPIVLRMMNDQLMFLERAFIDPLGLPDRPFYRHVIYAPSSHNSYAGESFPGIYDALFDIESKVDPSKAWGEVKRQIYVAAFTVQAAAETLSEVA
Turning to B1, the kcat/Km worked out at 96200 M⁻¹ s⁻¹ in data set [1] and 128000 M⁻¹ s⁻¹ in data set [2]. The Km in data set [3] amounted to 2.6 µM; in data set [4], 2.9 µM. For the same protein, the kcat in data set [3] worked out at 0.25 s⁻¹; in data set [4] it was 0.37 s⁻¹.

In general, kcat/Km refers to the second-order rate constant that governs catalysis at low substrate concentration. For orientation: Km means the concentration of substrate that gives half-maximal velocity. Usually kcat stands for the maximal rate divided by the concentration of active sites.

The values above are taken from ChEMBL document CHEMBL1926644, “Novel substrate-based inhibitors of human glutamate carboxypeptidase II with enhanced lipophilicity” (J Med Chem, 2011).
